One compound from BindingDB's records for 18989912, “Novel acetylcholine and carbamoylcholine analogues: development of a functionally selective alpha4beta2 nicotinic acetylcholine receptor agonist” (2009) can be followed below.

This test deals with Neuronal acetylcholine receptor subunit alpha-7 (Rattus norvegicus, UniProt Q05941).

Where only a bound is given, the exact number is not on record here.

As usually defined, the Ki is the dissociation constant of the complex between target and ligand, obtained from inhibition or displacement. Higher therefore signals weaker binding. Take `CNC(=O)OCCC(C)N(C)C` (stereo unspecified): the Ki was greater than 1000 µM.
